{"source": "patent US20110217713A1", "about": "(On-Q-ity, priority 2010, published 2011)", "origin": "cited, not measured here", "system": "EGFR in NSCLC", "conditions": "NSCLC patient population, unselected; cited from earlier work", "data": [{"smiles": "COc1cc2ncnc(Nc3ccc(F)c(Cl)c3)c2cc1OCCCN1CCOCC1", "note": "[Iressa, gefitinib]", "values": [{"measurement": "clinical trials efficacy (response for the test population)", "value": "around 15%"}]}]}
